Results published in patent publication US9493663B2, “Photopolymerizable inkjet ink, ink cartridge, and printer” (RICOH COMPANY, LTD., priority 2011, dated 2016).

Test: skin sensitization test (LLNA, Local Lymph Node Assay, OECD test guideline 429), Stimulation Index
Assay type: in vivo
Settings: SI less than 3 judged negative
Source text: The present inventor conducted extensive studies and previously found some materials safe in skin sensitization. […]
As described in literatures (for example, “Functional Material” (Kino Zairyou) 2005, September, Vol. 25, No. 9, p. 55), the compound having a Stimulation Index (SI value) of less than 3, where the Stimulation Index indicates the extent of skin sensitization, is judged as being negative for skin sensitization. Also, the compounds evaluated as “negative for skin sensitization” or “no skin sensitization” in their MSDS (Material Safety Data Sheet) and/or literatures (for example, van der Walle H B. et al., Contact Dermatitis, 1982, 8(4), 223-235) each have the above SI value which is less than 3, and therefore they are encompassed by the present invention. The lower SI value means lower skin sensitization. Thus, in the present invention, a monomer or an oligomer having lower SI value is preferably used. The SI value of the monomer or the oligomer used is preferably 2 or lower, more preferably 1.6 or lower.
The value in parentheses after each of A1 to A23 is “SI value” and the description “negative” or “none” after each of A1 to A23 means that the compound is evaluated as “negative for skin sensitization” or “no skin sensitization” in the MSDS (Material Safety Data Sheet) or literatures (for example, van der Walle H B. et al., Contact Dermatitis, 1982, 8(4), 223-235). The description “negative” or “none” is equivalent to the SI value of less than 3.

## Ethylene oxide-modified bisphenol A diacrylate [Example A10]
  SI value (Stimulation Index): 1.2

## Ethylene oxide-modified phenol acrylate [Example A18]
  SI value (Stimulation Index): 0.7

## Ethylene oxide-modified trimethylol propane trimethacrylate [Example A20]
  SI value (Stimulation Index): 1.0

## Glycerin dimethacrylate [Example A22]
  SI value (Stimulation Index): 1.2
